Most compounds without a hit are left out; they make up all but 2.1% or so of the library.
Nrf2 activator = Nrf2 pathway activation; 410,000 compounds, 0.31% hits; AID 624171; Potency, µM (titrated, usually from 46.1 µM), for inactives: at the highest dose activation, most hits filed as activators; AREc32 ARE-luciferase reporter (MCF7-derived line), luminescence, 24 h; note: potency is the fitted concentration of half-maximal effect; % of control where 0% means no effect; nearly all actives have a fitted effect of over 65% in size
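ARE activation measured as luciferase luminescence (Steady-Glo, 30 min RT) in AREc32_Fluc cells after 24 hr compound exposure at 37 deg C, 5% CO2; cells seeded overnight at 1000/well in OPTI-MEM, 5% FBS.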
miR-21 reporter = miR-21 reporter, rising signal; HeLa miR-21 FLuc reporter, luciferase, 48 h; Potency, µM (top dose mostly 38.3 µM), without a hit: at the top dose reporter change, positive = more light; 340,000 tested, under 10 active; active = well fitted rising curve with a large enough effect; inconclusive = small, poorly fitted or top-dose-only effect; inactive = no such curve, though single readings can be large or run the other way;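 note: % of control where 0% means no effect; miR-21 action dims this reporter so a rising signal means less miR-21 action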
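HeLa miR-21-FLuc reporter line, endogenous miR-21; 2000 cells/well in DMEM/10% FBS; compound titration up to ~40uM final, 48 h, 37 degree Celsius; luciferase detection reagent, 15 min lysis, CCD luminescence.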
Nrf2 block = inhibitors of Nrf2 signaling; A549 ARE-Fluc reporter, luciferase luminescence, 18-24 h; Potency, µM (top dose mostly 46 µM), for the others: at the top dose activity change, negative = inhibition, most hits filed as inhibitors; 360,000 compounds, 2.1% hits; note: potency is the fitted concentration of half-maximal effect; % is set by controls: 0 for no effect and ±100 for the full control effect; nearly all actives have a fitted effect of over 60% in size
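In this cell-based qHTS, ARE-driven firefly luciferase in A549 cells reports Nrf2 activity; the luminescent signal after BugLite lysis is the measured value, with a prior CellTiter-Fluor read for cell health.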
GRP78 ERSR act = inducers of ER stress response in human glioma cells; 420,000 compounds, 0.02% hits; Potency, µM, without a hit: at the top dose activation, most hits filed as activators; U87-MG GRP78 promoter luciferase reporter, 16 h; note: potency is the fitted concentration of half-maximal effect; series mostly up to about 76 µM; % of control where 0% means no effect; nearly all actives have a fitted effect of over 35% in size
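ERSR induction read as luciferase luminescence (Bright-Glo, 10 min at room temperature) in stably transfected human U87-MG glioma cells exposed to compounds for 16 h, using GRP78 as sensor.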
A549 viability = A549 cytotoxicity, counter-screen for Nrf2 inhibitors | Potency, µM (top dose mostly 46 µM), for inactives: at the highest dose activity change, negative = cytotoxicity, actives largely listed as inhibitors | AID 504648 | A549 ARE-Fluc cells, CellTiter-Fluor viability, 18-24 h | 390,000 compounds, 0.16% hits; note: potency is the fitted concentration of half-maximal effect; % is set by controls: 0 for no effect and ±100 for the full control effect
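Cytotoxicity counterscreen: CellTiter-Fluor fluorescence was measured in A549 ARE_Fluc cells after 18-24 h of compound exposure in a concentration series. The subsequent BugLite luminescent read reports ARE-luciferase activity.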
TSG101-PTAP inh = blocks PTAP/TSG101 interaction to inhibit HIV-1 budding. Q99816. Fluorescence polarization, FITC-PTAP peptide / Tsg101 binding. Potency, µM (titrated, usually from 115 µM), without a hit: at the top dose activity change, negative = inhibition, actives largely listed as inhibitors. 340,000 tested, under 10 active. AID 493005; active = well fitted inhibition curve with a large enough effect in the main read-out, with a control signal flat, not every such curve was filed as active; inconclusive = small, poorly fitted or top-dose-only effect, or effect the other way, or a change in a side signal; inactive = no such curve, though single readings can be large or run the other way; note: potency is the fitted concentration of half-maximal effect; % of control where 0% means no effect
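Compounds were pin-transferred onto Tsg101 binding domain (10 uM final) in HEPES pH 7.5 buffer, then FITC-PTAP peptide was added at 50 nM final. After 20 min at RT, polarization reported peptide displacement across a qHTS concentration series.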
* marks the source's active call; other numbers are inactive results. Unless noted, calls come from the whole dose curve; as a rule, active = well fitted curve in the direction sought with a large enough effect; inconclusive = small, poorly fitted or top-dose-only effect, or another doubt; inactive = no such curve, though single readings can be large; an effect the other way counts as inactive or inconclusive.

`O=C(N/N=C/c1ccc(OC(=O)c2ccccc2Cl)cc1)c1ccccn1` gave Nrf2 activator 1%, miR-21 reporter -30%, Nrf2 block inconclusive, GRP78 ERSR act -3%, A549 viability 1% and TSG101-PTAP inh -1%.
Screening O=C(N/N=C/c1ccc(OC(=O)c2ccccc2Cl)cc1)c1cc(O)cc(O)c1 returned Nrf2 activator 0%, miR-21 reporter -7%, Nrf2 block 6.5µM*, GRP78 ERSR act 6%, A549 viability 1% and TSG101-PTAP inh -4%.
Cc1ccc(NC(=O)CC(=O)c2ccc([N+](=O)[O-])cc2)cc1S(=O)(=O)Nc1cccc(Cl)c1 was read as Nrf2 activator 0%, miR-21 reporter inconclusive, Nrf2 block 16µM*, GRP78 ERSR act -2%, A549 viability inconclusive and TSG101-PTAP inh -5%.
For c1ccc(CSc2n[nH]c(-c3ccco3)n2)cc1 the results were Nrf2 activator 3%, miR-21 reporter -43%, Nrf2 block 2%, GRP78 ERSR act -7%, A549 viability -15% and TSG101-PTAP inh -4%.
`c1ccc(CSc2nccc(-c3ccco3)n2)cc1` gave Nrf2 activator 10µM*, Nrf2 block 8%, GRP78 ERSR act 1%, A549 viability 7% and TSG101-PTAP inh 1%.
For COC(=O)[C@]12CCC(C)(C)C[C@@H]1[C@@H]1C(=O)C=C3[C@@]4(C)C=C(C#N)C(=O)C(C)(C)[C@@H]4CC[C@@]3(C)[C@]1(C)CC2 the results were GRP78 ERSR act -11%.
Screening CN(C)S(=O)(=O)c1cccc(NC(=O)CSc2nncn2C)c1 returned Nrf2 activator 0%, miR-21 reporter 0%, Nrf2 block 8%, GRP78 ERSR act -2%, A549 viability -6% and TSG101-PTAP inh 1%.
`Cc1cc(C)nc(SCC(=O)Nc2cccc(S(=O)(=O)N(C)C)c2)n1` gave Nrf2 activator 4%, miR-21 reporter -1%, Nrf2 block 18µM*, GRP78 ERSR act -2%, A549 viability -5% and TSG101-PTAP inh 0%.
`CN(C)S(=O)(=O)c1ccc(NC(=O)CSc2nc3ccccc3n2-c2ccccc2)cc1` gave Nrf2 activator 4%, miR-21 reporter 25%, Nrf2 block 21µM*, GRP78 ERSR act -4%, A549 viability 1% and TSG101-PTAP inh -6%.
Screening NS(=O)(=O)c1ccc(NC(=O)CSc2nc3ccccc3n2-c2ccccc2)cc1 returned Nrf2 activator 2%, miR-21 reporter -10%, Nrf2 block inconclusive, GRP78 ERSR act -4%, A549 viability inconclusive and TSG101-PTAP inh -12%.
For CN(C)S(=O)(=O)c1cccc(NC(=O)CSc2nc3ccccc3n2-c2ccccc2)c1 the results were Nrf2 activator 2%, miR-21 reporter 12%, Nrf2 block 18µM*, GRP78 ERSR act -3%, A549 viability inconclusive and TSG101-PTAP inh -3%.
For Cc1ccc(C(=O)Nc2cnn(-c3ccc(C(=O)N(C)Cc4n[nH]c5c4CCCC5)cc3)c2)c(C)c1 the results were GRP78 ERSR act -5%.
Screening CC(C)OC(=O)OCOP(=O)(CO[C@H](C)Cn1cnc2c(N)ncnc21)OCOC(=O)OC(C)C returned GRP78 ERSR act -4%.
For OC(Cc1ccnc2ccccc12)C(Cl)(Cl)Cl (configuration not stated) the results were Nrf2 activator -1%, Nrf2 block 18µM*, GRP78 ERSR act -6%, A549 viability -15% and TSG101-PTAP inh -3%.
For COc1cccc(C(=O)Nc2ccc3c(c2)CCCN3C(=O)c2cccs2)c1OC the results were Nrf2 activator 4%, miR-21 reporter 11%, Nrf2 block 21µM*, GRP78 ERSR act -1%, A549 viability -11% and TSG101-PTAP inh -5%.
`COc1cccc(C(=O)Nc2ccncc2)c1OC` gave Nrf2 activator 0%, miR-21 reporter 7%, Nrf2 block 23µM*, GRP78 ERSR act -2%, A549 viability -4% and TSG101-PTAP inh -3%.

Arranged by count of non-hydrogen atoms (lowest first): part of the list above.
`COc1cccc(C(=O)Nc2ccncc2)c1OC` gave Nrf2 activator 0%, miR-21 reporter 7%, Nrf2 block 23µM*, GRP78 ERSR act -2%, A549 viability -4% and TSG101-PTAP inh -3%.
`Cc1cc(C)nc(SCC(=O)Nc2cccc(S(=O)(=O)N(C)C)c2)n1` gave Nrf2 activator 4%, miR-21 reporter -1%, Nrf2 block 18µM*, GRP78 ERSR act -2%, A549 viability -5% and TSG101-PTAP inh 0%.
Screening CC(C)OC(=O)OCOP(=O)(CO[C@H](C)Cn1cnc2c(N)ncnc21)OCOC(=O)OC(C)C returned GRP78 ERSR act -4%.

Screening results from PubChem BioAssay.
